Measurements as given in ChEMBL document CHEMBL4477204, “Tetrahydroisoquinoline-Derived Urea and 2,5-Diketopiperazine Derivatives as Selective Antagonists of the Transient Receptor Potential Melastatin 8 (TRPM8) Channel Receptor and Antiprostate Cancer Agents” (J Med Chem, 2016).
Active and inactive are the calls of the source. The calls are words filed in the database; no cut-off is given here.

By UniProt entry, the sequences of proteins in these tests, tags left out.
UniProt Q8R455, whole entry, looked up: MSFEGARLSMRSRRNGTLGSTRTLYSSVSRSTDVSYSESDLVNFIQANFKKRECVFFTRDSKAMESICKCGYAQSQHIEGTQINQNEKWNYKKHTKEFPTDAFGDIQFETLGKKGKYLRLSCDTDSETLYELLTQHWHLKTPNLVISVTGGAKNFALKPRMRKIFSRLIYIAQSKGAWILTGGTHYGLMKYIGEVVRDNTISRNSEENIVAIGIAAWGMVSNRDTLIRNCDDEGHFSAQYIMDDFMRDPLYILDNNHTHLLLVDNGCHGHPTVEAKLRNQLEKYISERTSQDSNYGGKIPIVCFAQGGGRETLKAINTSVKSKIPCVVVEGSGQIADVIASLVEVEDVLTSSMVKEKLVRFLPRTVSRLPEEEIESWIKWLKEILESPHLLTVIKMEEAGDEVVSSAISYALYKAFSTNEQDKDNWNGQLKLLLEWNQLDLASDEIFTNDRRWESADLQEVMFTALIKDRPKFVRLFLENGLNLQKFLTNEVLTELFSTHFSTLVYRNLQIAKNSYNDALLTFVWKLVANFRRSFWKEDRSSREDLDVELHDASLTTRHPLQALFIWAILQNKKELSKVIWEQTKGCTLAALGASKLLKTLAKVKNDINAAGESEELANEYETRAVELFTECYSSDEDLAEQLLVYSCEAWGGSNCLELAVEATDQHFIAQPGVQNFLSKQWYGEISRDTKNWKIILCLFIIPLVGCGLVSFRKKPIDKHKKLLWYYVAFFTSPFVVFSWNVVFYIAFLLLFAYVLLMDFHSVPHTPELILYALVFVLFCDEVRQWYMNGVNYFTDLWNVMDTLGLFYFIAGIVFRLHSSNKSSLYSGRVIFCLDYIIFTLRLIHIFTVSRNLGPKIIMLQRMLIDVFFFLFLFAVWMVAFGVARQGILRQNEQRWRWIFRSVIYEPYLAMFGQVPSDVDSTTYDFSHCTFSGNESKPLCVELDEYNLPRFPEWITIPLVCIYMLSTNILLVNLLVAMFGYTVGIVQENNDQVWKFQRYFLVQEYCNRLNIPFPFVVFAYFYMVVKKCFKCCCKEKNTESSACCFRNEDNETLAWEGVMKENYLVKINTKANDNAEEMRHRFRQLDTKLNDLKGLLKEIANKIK

Columns and labels:
[1] = biological target: Transient receptor potential cation channel subfamily M member 8 (Rattus norvegicus) (UniProt Q8R455); assay: Agonist activity at recombinant rat TRPM8 expressed in HEK293 cells assessed as increase in intracellular calcium accumulation by Fluo-4-AM probe-based spectrofluorimetric assay relative to ionomycin; assay type: cell-based
Method in brief: (§1)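 HEK-293 cells stably expressing rat TRPM8 were loaded with Fluo-4-AM (4 µM, 0.02% Pluronic F-127) for 1 h at 25 °C in serum-free EMEM. They were then washed and suspended in Tyrode's buffer pH 7.4 in a stirred cuvette. [Ca2+]i fluorescence (ex 488/em 516 nm) was read before and after compound addition. Wild-type HEK-293 response was subtracted. Efficacy is expressed versus 4 µM ionomycin; EC50 comes from a sigmoidal fit.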

[2] = biological target: Transient receptor potential cation channel subfamily M member 8 (Rattus norvegicus) (UniProt Q8R455); assay: Agonist activity at recombinant rat TRPM8 expressed in HEK293 cells assessed as increase in intracellular calcium accumulation up to 10 uM by Fluo-4-AM probe-based spectrofluorimetric assay; assay type: cell-based; method in brief: as §1

Row | SMILES | Activity [1] | Activity [2]
1 | COc1ccc(CCNC(=O)N2CCc3cc(OC)c(OC)cc3C2c2cccc([N+](=O)[O-])c2)cc1OC (stereo not given) | < 10% | inactive
2 | COc1cc(/C=C2\NC(=O)[C@@H]3Cc4c(OC)c(C)c(OC)c(OC)c4[C@@H](c4ccccc4)N3C2=O)c(OC)c(C)c1OC | < 10% | inactive
3 | COc1ccc(CCNC(=O)N2CCc3cc(OC)c(OC)cc3C2c2ccc(Cl)cc2)cc1OC (stereo not given) | < 10% | inactive
4 | COc1cc2c(cc1OC)C(c1cccc(-c3cccc([N+](=O)[O-])c3)n1)=NCC2 | < 10% | inactive
5 | CCC1c2cc(OC)c(OC)cc2CCN1C(=O)NCCc1ccc(OC)c(OC)c1 (stereo not given) | < 10% | inactive
6 | COc1ccc(/C=C2\NC(=O)[C@@H]3Cc4cc(OC)c(OC)cc4[C@@H](c4cccc([N+](=O)[O-])c4)N3C2=O)cc1OC | < 10% | inactive
7 | COc1ccc(/C=C2\NC(=O)[C@@H]3Cc4cc(OC)c(OC)cc4[C@@H](c4ccc(Br)cc4)N3C2=O)cc1OC | < 10% | inactive
8 | COc1cc2c(cc1OC)[C@@H](c1ccc(C(F)(F)F)cc1)N(C(=O)N1CCc3cc(OC)c(OC)cc3[C@@H]1c1ccc(C(F)(F)F)cc1)CC2 | < 10% | inactive
9 | COc1ccc(CCNC(=O)N2CCc3cc(OC)c(OC)cc3C2c2ccccc2)cc1OC (stereo not given) | < 10% | inactive
10 | COc1cc2c(cc1OC)[C@@H](c1ccc(F)cc1)N(C(=O)N1CCc3cc(OC)c(OC)cc3[C@@H]1c1ccc(F)cc1)CC2 | < 10% | inactive
11 | COc1ccc(/C=C2\NC(=O)[C@@H]3Cc4cc(OC)c(OC)cc4[C@@H](c4ccccc4Cl)N3C2=O)cc1OC | < 10% | inactive
12 | COc1ccc(CCNC(=O)NCCc2ccc(OC)c(OC)c2)cc1OC | < 10% | inactive
13 | CCCC1c2cc(OC)c(OC)cc2CCN1C(=O)NCCc1ccc(OC)c(OC)c1 (stereo not given) | < 10% | inactive
14 | COc1ccc(CCNC(=O)N2CCc3cc(OC)c(OC)cc3C2c2ccc(Br)cc2)cc1OC (stereo not given) | < 10% | inactive
15 | COc1cc2c(cc1OC)[C@@H](c1ccc(Oc3ccc([N+](=O)[O-])cc3)cc1)N(C(=O)N1CCc3cc(OC)c(OC)cc3[C@@H]1c1ccc(Oc3ccc([N+](=O)[O-])cc3)cc1)CC2 | < 10% | inactive
16 | COc1cc2c(cc1OC)C(c1ccc(C(F)(F)F)cc1)N(C(C)=O)CC2 (stereo not given) | < 10% | inactive
17 | COc1cc2c(cc1OC)[C@H](c1ccc3ccccc3c1)N(C(=O)N1CCc3cc(OC)c(OC)cc3[C@@H]1c1ccc3ccccc3c1)CC2 (racemic) | < 10% | inactive
18 | COc1cc2c(cc1OC)C(c1ccc([N+](=O)[O-])cc1[N+](=O)[O-])NCC2 (racemic) | < 10% | inactive

Row | SMILES | Activity [1] | Activity [2]
19 | COc1cc2c(cc1OC)[C@H](c1ccc([N+](=O)[O-])cc1[N+](=O)[O-])N(C(=O)N1CCc3cc(OC)c(OC)cc3[C@@H]1c1ccc([N+](=O)[O-])cc1[N+](=O)[O-])CC2 (racemic) | < 10% | inactive
20 | CCC[C@H]1c2cc(OC)c(OC)cc2CCN1C(=O)N1CCc2cc(OC)c(OC)cc2[C@@H]1CCC (racemic) | < 10% | inactive
21 | COc1cc2c(cc1OC)C(c1cccc(-c3cccc([N+](=O)[O-])c3)n1)NCC2 (racemic) | < 10% | inactive
22 | COc1cc2c(cc1OC)[C@H](c1ccc(Oc3ccc([N+](=O)[O-])cc3)cc1)N(C(=O)N1CCc3cc(OC)c(OC)cc3[C@@H]1c1ccc(Oc3ccc([N+](=O)[O-])cc3)cc1)CC2 (racemic) | < 10% | inactive
23 | COc1cc2c(cc1OC)[C@H](c1ccc(C(F)(F)F)cc1)N(C(=O)N1CCc3cc(OC)c(OC)cc3[C@@H]1c1ccc(C(F)(F)F)cc1)CC2 (racemic) | < 10% | inactive
24 | COc1ccc(OC)c(C[C@@H]2NC(=O)[C@@H]3Cc4c(OC)ccc(OC)c4[C@@H](/C=C/c4ccccc4)N3C2=O)c1 (racemic) | < 10% | inactive
25 | COc1cc2c(cc1OC)[C@H](c1ccc(Br)cc1)N(C(=O)N1CCc3cc(OC)c(OC)cc3[C@@H]1c1ccc(Br)cc1)CC2 (racemic) | < 10% | inactive
26 | COc1cc2c(cc1OC)[C@H](c1ccccc1Cl)N(C(=O)N1CCc3cc(OC)c(OC)cc3[C@@H]1c1ccccc1Cl)CC2 (racemic) | < 10% | inactive
27 | COc1cc2c(cc1OC)[C@H](c1ccccc1)N(C(=O)N1CCc3cc(OC)c(OC)cc3[C@@H]1c1ccccc1)CC2 (racemic) | < 10% | inactive
28 | COc1ccc(CCNC(=O)N2CCc3cc(OC)c(OC)cc3C2c2ccccc2Cl)cc1OC (racemic) | < 10% | inactive
29 | COc1cc2c(cc1OC)[C@H](c1cccc(-c3cccc([N+](=O)[O-])c3)n1)N(C(=O)N1CCc3cc(OC)c(OC)cc3[C@@H]1c1cccc(-c3cccc([N+](=O)[O-])c3)n1)CC2 (racemic) | < 10% | inactive
30 | COc1cc2c(cc1OC)[C@H](c1cccc([N+](=O)[O-])c1)N(C(=O)N1CCc3cc(OC)c(OC)cc3[C@@H]1c1cccc([N+](=O)[O-])c1)CC2 (racemic) | < 10% | inactive
31 | COc1cc(C[C@@H]2NC(=O)[C@H](Cc3cc(OC)c(OC)c(C)c3OC)NC2=O)c(OC)c(C)c1OC (racemic) | inactive | inactive
32 | COc1cc2c(cc1OC)[C@H](c1ccc(F)cc1)N(C(=O)N1CCc3cc(OC)c(OC)cc3[C@@H]1c1ccc(F)cc1)CC2 (racemic) | < 10% | inactive
33 | COc1c(C)c(OC)c(OC)c2c1C[C@H]1C(=O)N3[C@@H](Cc4c(OC)c(C)c(OC)c(OC)c4[C@@H]3/C=C/c3ccccc3)C(=O)N1[C@H]2/C=C/c1ccccc1 (racemic) | < 10% | inactive
34 | COc1cc2c(cc1OC)[C@H](c1ccc(Cl)cc1)N(C(=O)N1CCc3cc(OC)c(OC)cc3[C@@H]1c1ccc(Cl)cc1)CC2 (racemic) | < 10% | inactive
35 | COc1cc2c(cc1OC)C(c1ccc(Cl)cc1)NCC2 (racemic) | < 10% | inactive
